Test system: A549 human lung adenocarcinoma epithelial cells
Assay: In vitro toxicity assay: cytotoxicity against A549 cells (CellTiter 96 Aqueous One, 72 h)
Conditions: read-out: IC50 (nM) A549

## CC1=CC(=O)OCC23CCC(C)=CC2OC2CC(OC(=O)C=CC=CC(C(C)O)OCC1)C3(C)C21CO1 (stereo not shown)
  IC50: < 200 nM
